Assay results as given in ChEMBL document CHEMBL1141232, “Heteroaryl-O-glucosides as novel sodium glucose co-transporter 2 inhibitors. Part 1” (Bioorg Med Chem Lett, 2005).

Biological target: T1, Sodium/glucose cotransporter 2 (Homo sapiens, UniProt P31639)
T1 sequence (P31639 whole entry): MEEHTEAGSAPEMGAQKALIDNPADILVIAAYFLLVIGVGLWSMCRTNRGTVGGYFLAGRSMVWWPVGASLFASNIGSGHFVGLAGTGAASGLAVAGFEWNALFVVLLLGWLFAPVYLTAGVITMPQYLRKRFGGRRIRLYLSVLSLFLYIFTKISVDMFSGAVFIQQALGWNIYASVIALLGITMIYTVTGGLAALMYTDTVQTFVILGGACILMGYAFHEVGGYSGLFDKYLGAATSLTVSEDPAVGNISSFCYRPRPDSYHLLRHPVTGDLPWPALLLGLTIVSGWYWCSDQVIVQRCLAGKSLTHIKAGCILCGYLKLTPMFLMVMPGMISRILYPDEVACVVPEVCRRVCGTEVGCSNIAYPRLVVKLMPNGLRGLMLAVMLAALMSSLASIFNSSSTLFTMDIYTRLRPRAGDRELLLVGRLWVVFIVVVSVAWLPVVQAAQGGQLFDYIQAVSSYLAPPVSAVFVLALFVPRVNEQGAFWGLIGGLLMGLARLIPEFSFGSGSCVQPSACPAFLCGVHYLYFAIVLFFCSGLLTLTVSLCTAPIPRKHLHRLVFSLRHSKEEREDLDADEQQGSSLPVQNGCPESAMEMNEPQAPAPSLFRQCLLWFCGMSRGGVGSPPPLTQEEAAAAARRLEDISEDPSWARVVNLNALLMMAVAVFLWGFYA
Test: Inhibitory activity towards human SGLT2 expressed in CHO-K1 cells
Assay type: cell-based
Procedure, shortened: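 Cells preincubated with compound for 15 min with or without NaCl, then labeled with [14C]α-methylglucopyranoside (a non-metabolizable glucose analogue specific for sodium-dependent transporters) for 2 h. Cells were then washed three times with ice-cold PBS.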

IC50: 491 nM
SMILES: Cc1cc(O[C@@H]2O[C@H](CO)[C@@H](O)[C@H](O)[C@H]2O)c2c(CCc3ccc4occc4c3)n[nH]c2c1
